The first assay concerns HLA-A2 restricted CD8+ T cells (PBMC). The settings on record: first study; non-HLA-A*0201 recent-onset T1D and HLA-A*0201 non-diabetic subjects.
For the sequence FLFAVGFYL [IGRP215], the “IFN-γ secretion by PBMC of control subjects” value (“IFN-γ secretion by PBMC” for short) was “none of the control subjects”.

As for “FLIVLSVAL (IAPP precursor peptide - type 1 diabetes immunodominant epitope) [IAPP9]”, the “IFN-γ secretion by PBMC” value is given as “none of the control subjects”.

Turning to FLWSVFMLI [IGRP152], the “IFN-γ secretion by PBMC” value was “none of the control subjects”.

The assay is the same for the next values; noted with them: second study, HLA-A*0201 recent-onset T1D patients.
HLVEALYLV [InsulinB10]: the “recent-onset T1D patients with responses” value was 18% and the “recent-onset T1D patients with responses (number)” value was 2 of 11.

Turning to SLAAGVKLL [IA-2(482)], the “recent-onset T1D patients with responses” value turned out to be 27% and the “recent-onset T1D patients with responses (number)” value was 3 of 11.

SLSPLQAEL [IA-2(172)]: the “recent-onset T1D patients with responses” value was 18% and the “recent-onset T1D patients with responses (number)” value is recorded as 2 of 11.

Source of the values: patent US20070129307A1, “Insulin epitopes for the treatment of type 1 diabetes” (The University of British Columbia, priority 2001, published 2007).
